Data published in patent publication US6921667B2, “Methods for direct detection of individual methotrexate metabolites” (Prometheus Laboratories, Inc., priority 2003, dated 2005).

Assay: Red blood cell methotrexate polyglutamate concentrations in patients on low-dose methotrexate, by HPLC fluorometry with post-column photo-oxidation
Format: in vivo, human
Conditions: single patient on 17.5 mg weekly methotrexate for at least 3 months; FIG. 4A; packed red blood cells

Substance	concentration in red blood cell sample
4-amino-10-methylpteroylhexa-glutamic acid [MTXPG6]	undetected
4-amino-10-methylpteroyltri-glutamic acid [MTXPG3]	64 nM
